From patent publication US20240115662A1, “METHODS OF TREATING HYPOGONADOTROPIC HYPOGONADISM AND COGNITION IMPAIRMENT FOLLOWING A TRAUMATIC BRAIN INJURY” (WISCONSIN ALUMNI RESEARCH FOUNDATION, priority 2021, published 2024)

Key:
[1] = tested on: adult male Sprague Dawley rats with CCI injury to the mPFC; test: Reversal of hypogonadism after Sham surgery or CCI to the mPFC (Example 7); assay type: in vivo, rat; details: hCG 400 IU/kg/2 days over 29 d
Method: Plasma concentrations (mean±SEM) of testosterone and progesterone at PID-10, 1, 11, 19 and 29. Data were analyzed using 3-way repeated measures ANOVA; post-hoc analyses were performed using the Tukey multiple comparison test. Difference letters indicate significant differences among groups over days (P<0.05). Similar significant declines in circulating concentrations of T (74.5%) and P4 (59.0%) were observed by PID1 for CCI injured animals (i.e., craniectomy+CCI+saline group). The hypogonadism induced by the surgery/CCI in both groups was maintained through day 29.
Over the last 3.5 years our lab has used controlled cortical impact (CCI) injury, a highly replicable form of focal-penetrating TBI in adult male rats, to test for neurohormones with efficacy as a treatment for TBI. The CCI to the mPFC used is moderate-severe in magnitude (injury coordinates A/P=+2.5 mm from Bregma (b); M/L=0.0 mm from midline; D/V=−3.0 to −3.5 mm from brain surface; impactor size=5 mm; velocity=2.25 m/s; dwell=100 ms; impact depth=3.5 mm). Bilateral damage to the mPFC from the CCI and retrograde degeneration of cholinergic hippocampal neurons together disrupts grip strength, locomotion, motor coordination, spatiotemporal conditioning, and increases anxiety-like behavior.

[2] = tested on: adult male rats with CCI injury; test: Rotarod vestibulomotor performance after CCI; assay type: in vivo, rat; details: CCI animals, PID23; hCG every 2 days
Method: Rats were placed on a rotating rod accelerating at a constant rate (1 rotation per second per second) and allowed to run for up to 300 s. Time elapsed before fall was recorded (n=9-12/group, *p<0.05; letters indicate differences between groups and times).
(§1) To test the effects of hCG on cognitive and motor recovery, 69 adult male rats (5-month of age) with CCI injury (group size, n=31), sham surgery (n=24) or non-surgical control (NSCon; n=14) were immediately administered saline (n=32) or hCG (200 mIU/kg/2 days n=37) over 28 d. On PID 2, 6, 9, 13 and 23, all rats were tested for vestibulomotor performance (Rotarod) and on PID 6-10 and 20-22 the same rats were tested for learning and memory (Morris water maze (MWM)), respectively. Probe Test 1 and 2 (i.e., swimming in tank for 60 s without MWM platform) were conducted on PID 12 and 24. At the end of behavioral testing, rat brains were collected, digitally imaged and analyzed for gross lesion size (% of whole brain surface area). Note that there was considerable overlap between NSCon and Sham groups (see small standard deviations for the data) and are therefore presented as one group.
To test vestibulomotor performance, rats were trained on a Rotarod. […] Improvements in vestibular balance and motor coordination induced by hCG were maintained over the 23 days post-injury, indicating utility of hCG for improving vestibulomotor function.

[3] = tested on: adult male rats with CCI injury; test: Gross lesion size after CCI; assay type: in vivo, rat
Method: as §1

[4] = tested on: human embryonic stem cells (hESC); test: hESC proliferation, trypan blue assay; assay type: cell-based; details: hCG 500 mIU/ml, 6 days
Method: Above: A schematic of the LHCGR activation site and binding site of rabbit polyclonal antibody against amino acids 15 to 38 of the extracellular binding domain.
FIG. 5A. hESC were grown in TESR1 media-Li in the presence of E2 (10 nM), P4 (2 μM) or E2 (10 nM)+P4 (2 μM) for 6 d and cell proliferation measured using the trypan blue assay. Results are expressed as mean±SEM, n=3 (*p<0.05, **p<0.005 compared to 6 d control). FIG. 5B. Equal amounts of protein from cell lysates of hESC treated for 9 d as described above were analyzed by immunoblot using a monoclonal antibody against nestin (clone 10C2; Chemicon, CA, USA). FIG. 5C. hESC were cultured for 4 days, enzymatically lifted and placed into EB media (containing serum) and rocked gently for an additional 4 days prior to being placed in one of two neural induction medias for an additional 11 days, where P4 was either absence or present. During this transition from EB to rosettes, colony structures treated with P4 also were treated with a Progesterone Receptor (PR) antagonist (RU-486; 20 μM) for 11 days. At 19 day, morphological observation and molecular analysis were performed. (i) Control structure, a minimum of three rosette structures were observed inside the cystic cavity (arrows). […] Equal amounts of protein from cell lysates of above structures were analyzed by immunoblot for nestin. […]

hCG: heterodimeric glycoprotein hormone (α SEQ ID NO:1, β SEQ ID NO:2); given to the rats as Pregnyl
effect on hypogonadism (T and P4) induced by Sham surgery or CCI [1]: immediately reversed the hypogonadism
Rotarod latency to fall [2]: 167.6 ± 16.7 s
reduction of gross lesion size compared to vehicle treated animals [3]: 29.1%
gross lesion size as percent of total cortical area ([3]; immediate and chronic hCG): 7.3±1.2%
effect on suppression of hESC division by LHCGR blocking antibody [4]: reversed by treatment with hCG
